Earlier results in patent publication US20170340648A1, “Pharmaceutical Compositions Affecting Bioenergetic Processes in a Eukaryotic Biological System and Methods of Treatment” (JOYCE BIOTECH CORP., priority 2016, published 2017).

Conditions: cited from earlier work

For `CN(C)C(=N)N=C(N)N` [metformin, 3-(diaminomethylidene)-1,1-dimethylguanidine], the “plasma concentration, change in NASH” value is given as “increasing”.
